The nature of this data set: Acute toxicity in ip dosed CB17 SCID mouse assessed as lethal dose. It is filed as organism-based. As to conditions: in vivo.

The LD50 is the dose expected to kill half of the subjects tested. As for `O=C(O)[C@@H](O)COc1ccc(N(CCCl)CCCl)cc1`, the LD10 worked out at 18 mg/kg and the LD50 was 62 mg/kg.

Values taken from ChEMBL document CHEMBL5346881 (Eur J Med Chem, 2023).
